Source: patent publication US6921776B1, “Compound” (Sterix Limited, priority 1996, dated 2005)
Where two headings read alike, the source gives them in different places.

Protein sequences, listed by entry. Tags and fused reporters are not part of them. Residues count along the entry.
UniProt P08842, 22-583: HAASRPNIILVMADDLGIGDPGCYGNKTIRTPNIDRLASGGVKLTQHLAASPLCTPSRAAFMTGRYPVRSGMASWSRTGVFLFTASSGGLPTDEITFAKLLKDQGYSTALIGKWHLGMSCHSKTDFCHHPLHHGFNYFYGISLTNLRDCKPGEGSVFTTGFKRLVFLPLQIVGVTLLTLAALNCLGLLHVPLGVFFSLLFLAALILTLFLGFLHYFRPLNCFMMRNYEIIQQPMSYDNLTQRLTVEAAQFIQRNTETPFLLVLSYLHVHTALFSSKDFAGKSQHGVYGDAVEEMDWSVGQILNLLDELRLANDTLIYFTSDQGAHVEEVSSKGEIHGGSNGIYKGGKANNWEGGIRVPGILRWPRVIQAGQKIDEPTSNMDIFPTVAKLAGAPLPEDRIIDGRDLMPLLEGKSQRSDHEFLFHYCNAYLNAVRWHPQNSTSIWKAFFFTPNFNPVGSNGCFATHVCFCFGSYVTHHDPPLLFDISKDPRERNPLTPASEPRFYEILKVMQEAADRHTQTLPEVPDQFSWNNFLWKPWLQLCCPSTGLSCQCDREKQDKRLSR

How the values were obtained:
[1] = biological target: T1, oestrone sulphatase (E1-STS) (Homo sapiens, UniProt P08842)
[2] = biological target: T1, oestrone sulphatase (E1-STS); format: biochemical

% Inhibition ± S.D. of E1-STS activity in placental microsomes ([1]; 0.01 μM (Table 2)): 48 ± 2%
% Inhibition ± S.D. of E1-STS activity in placental microsomes ([1]; 0.1 μM (Table 2)): 91 ± 1%
Inhibition of E1-STS in placental microsomes ([1]; 1 μM): almost complete inhibition
% Inhibition ± S.D. of E1-STS activity in placental microsomes ([1]; 1 μM (Table 2)): >99%
KI (inactivation) ([2]; double-reciprocal plot, placental microsomes, read-out: Apparent Ki for E1-STS inactivation): 40 nM
Overall rate constant for the decrease in activity ([2]; method of Kitz and Wilson): 3450 s⁻¹
Mode of E1-STS inhibition ([2]; placental microsomes): biphasic
Mode of E1-STS inhibition ([2]; placental microsomes, listed as 667COUMATE): time- and concentration-dependent manner
SMILES: NS(=O)(=O)Oc1ccc2c3c(c(=O)oc2c1)CCCCC3 [compound 17, 6-Oxo-8,9,10,11-tetrahydro-7H-cyclohepta-[c][1]benzopyran-3-O-sulphamate]
